Earlier results as cited in patent US11473070B2, “Increased polypeptide production yields of butyrylcholinesterase polypeptides for therapeutic use” (dated 2022).

Assays:
[1] = system: Fc(M3)-G6S-CocH3, fusion of Fc(M3) (A1V/D142E/L144M) with human BChE mutant A199S/F227A/S287G/A328W/Y332G, SEQ ID NO: 16-SEQ ID NO: 37-SEQ ID NO: 13; details: reported in ref. [32]
[2] = system: human butyrylcholinesterase (BChE), wild type, SEQ ID NO: 10; details: naturally occurring (−)-cocaine, ref. [7]

SMILES: COC(=O)[C@H]1[C@@H](OC(=O)c2ccccc2)C[C@@H]2CC[C@H]1N2C
- kcat [1]: 94.9 ± 3.97 s⁻¹
- kcat [2]: 0.0683 s⁻¹
